From patent US9095541B2, “Brain tumor targeting peptides and methods” (Arch Cancer Therapeutics, Inc., priority 2009, dated 2015)

Test system: U87R cells
Assay: Transwell migration assay through brain-like matrix coated membranes, U87R
Type: cell-based, human
Details: cholesterol oxidase 1.8 U/mL, 4 hours
Experimental: Plating serial dilutions of phage with host bacteria on agarose plates was used to isolate phage subclones. Individual clones were isolated, amplified and tested for their inhibitory ability in in vitro invasion assays. […] Assessing the effects of LPS or random phage controlled for potential contamination by the host bacterial culture;
FIG. 3A is a bar graph showing that cholesterol oxidase inhibits cell migration. The invasive U87R cells were plated on matrix-coated transwell membranes and treated with cholesterol oxidase (1.8 U/mL) for 4 hours. Cells that migrated to the underside of the transwell membrane were stained with crystal violet and counted by light microscopy;
The membranes of 8 μm pore sized transwell inserts (Corning Costar) were coated with brain-like matrix (720 μL of 3 mg/mL collagen I (PureCol); 180 μL of 10×DMEM (Invitrogen); 9 uL of 1 mg/mL human plasma fibronectin (Sigma); 9 uL of 1 mg/mL chondroitin sulfate proteoglycans (Chemicon); 16 μL of 0.15 mg/mL laminin (Chemicon)) on both sides, allowed to dry, then plated with 5×10^4 cells in 100 μL media in the upper chamber and 500 μL media in the lower chamber. Inclusion of collagen was essential to see the inhibitory effect of H10 (FIG. S4). […] Cells which had migrated to the undersurface of the membranes were counted by light microscopy, and the sum of cells in five microscopic fields was recorded for each membrane.

cholesterol oxidase
migration of U87R cells: abrogated
